Test system: L1-mediated cell-cell adhesion in human L1-transfected NIH/3T3 cells (2B2-L1, 2A2-L1)
Experiment: Cell aggregation (cell-cell adhesion) assay in ethanol-sensitive, human L1-transfected NIH/3T3 cells
Type: cell-based
Conditions: 1-butanol on L1-expressing NIH/3T3 cells
Experimental: NIH/3T3 cells were cultured at 37° C. in Dulbecco's […] Eagle medium (DMEM) (Invitrogen, Carlsbad, Calif.) supplemented with 10% normal calf serum (Intergen, Purchase, N.Y.) and 400 μg/ml G418 (Life Technologies), in an atmosphere of 90% air and 10% CO2. Three subclones were utilized in these studies: 2B2-L1, 2A2-L1 and Vec-1A5.
Cell adhesion assays were performed in the absence and presence of the compounds, listed below in Table 1. […] The aqueous concentration of each antagonist was calculated to produce membrane concentrations equivalent to 100 mM ethanol. Membrane/buffer partition coefficients (Pm/b) were obtained or calculated from published octanol/water partition coefficients.
Cells were detached by gentle agitation in calcium-free and magnesium-free PBS supplemented with 0.1 mg/ml. […] Cells were viewed at a final magnification of 200× and each well was scored for single and adherent cells in five to six microscopic fields of view. Approximately 100 cells per field of view and 600 cells per well were counted. The percent of adherent cells was calculated for each microscopic field of view and then averaged for each well.
Agonists and antagonists were initially tested at aqueous concentrations that were calculated to produce molar membrane concentrations (˜10 mM) equivalent to those produced by an aqueous concentration of 100 mM ethanol (ECEQ). […]

## 1-butanol [reference compound]
  concentrations that altered membrane morphology: above 75 mM

From patent publication US6977272B2, “Method for antagonizing inhibition effects of alcohol on cell adhesion” (President and Fellows of Harvard College, priority 2002, dated 2005)
